Values quoted from earlier work, collected in paper PMC4844587, “PET imaging of cyclooxygenase-2 (COX-2) in a pre-clinical colorectal cancer model” (EJNMMI Research, 2016).

Test system: COX-1
Design: method as in PMID 24145766
Conditions: cited from earlier work

| SMILES | COX-1 inhibition (concentration range tested) | IC50 [µM] |
| --- | --- | --- |
| CS(=O)(=O)c1ccc(-c2cc(C(F)(F)F)nc(NCc3ccc(F)cc3)n2)cc1 [Pyricoxib, N-(4-fluorobenzyl)-4-[4-(methylsulfonyl)-phenyl]-6-(trifluoro-methyl)pyrimidin-2-amine] | did not show COX-1 inhibition in the concentration range tested |  |
| CS(=O)(=O)c1ccc(-c2cc(C(F)(F)F)nc(NCc3ccc([18F])cc3)n2)cc1 [[^18F]Pyricoxib, N-(4-[^18F]fluorobenzyl)-4-[4-(methylsulfonyl)phenyl]-6-(trifluoro-methyl)pyrimidin-2-amine] |  | > 100 |
